How the values were obtained:
DA-3 receptors = target: T1, DA-3 receptors (Rattus norvegicus, UniProt P19020); experiment: [3H]-7-OH-DPAT binding to DA-3 receptors (rat olfactory tubercle); details: average ± standard error, read-out: D3 affinity Ki
T1 construct: olfactory tubercle for DA-3 receptors; from tissue; host or cells: rat olfactory tubercle membranes

Chains of the proteins cited; added tags and fusions are not shown.
UniProt P19020, whole entry: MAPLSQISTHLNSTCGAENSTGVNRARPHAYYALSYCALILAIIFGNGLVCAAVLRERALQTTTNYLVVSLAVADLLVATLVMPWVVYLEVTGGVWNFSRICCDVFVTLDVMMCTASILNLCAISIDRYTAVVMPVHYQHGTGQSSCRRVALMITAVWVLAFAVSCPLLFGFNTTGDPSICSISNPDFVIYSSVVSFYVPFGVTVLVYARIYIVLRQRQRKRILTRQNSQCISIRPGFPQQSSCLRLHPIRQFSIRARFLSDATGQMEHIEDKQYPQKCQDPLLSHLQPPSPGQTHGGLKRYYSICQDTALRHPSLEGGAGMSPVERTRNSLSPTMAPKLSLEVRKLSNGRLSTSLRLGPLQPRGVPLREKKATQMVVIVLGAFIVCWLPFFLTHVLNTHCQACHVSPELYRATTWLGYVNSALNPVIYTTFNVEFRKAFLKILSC
UniProt P14842, whole entry: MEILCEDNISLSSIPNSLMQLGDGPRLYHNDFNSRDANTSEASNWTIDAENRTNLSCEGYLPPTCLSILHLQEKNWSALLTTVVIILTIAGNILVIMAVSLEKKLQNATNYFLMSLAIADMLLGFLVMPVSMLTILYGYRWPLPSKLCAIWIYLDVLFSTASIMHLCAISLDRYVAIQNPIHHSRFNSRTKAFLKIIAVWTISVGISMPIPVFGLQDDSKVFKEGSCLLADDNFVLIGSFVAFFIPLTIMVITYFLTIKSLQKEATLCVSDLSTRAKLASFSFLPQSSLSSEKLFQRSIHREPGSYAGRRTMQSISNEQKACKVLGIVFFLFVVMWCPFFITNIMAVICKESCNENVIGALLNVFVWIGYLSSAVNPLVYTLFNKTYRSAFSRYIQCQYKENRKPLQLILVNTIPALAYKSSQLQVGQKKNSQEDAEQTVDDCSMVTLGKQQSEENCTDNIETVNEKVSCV

5-HT2A receptors = 5-HT2A receptors (Rattus norvegicus, UniProt P14842); experiment: [3H]Ketanserin binding to 5-HT2A receptors (rat cortex); details: for Log Y: from 5HT2, D2 and D1 affinities, classic Log Y>6.48, atypical Log Y<6.48 (Meltzer)

Structure (SMILES): CN1CCN(C2Cn3cccc3Sc3ccccc32)CC1 (racemic) [(±)-3a, (±)-9-(4-methylpiperazin-1-yl)-9,10-dihydropyrrolo[2,1-b][1,3]benzothiazepine]
- Ki (DA-3 receptors): 57 nM

Structure (SMILES): CN1CCN([C@@H]2Cc3ccccc3Sc3ccc(Cl)cc32)CC1 [R-(−)-Octoclothepin]
- Ki (5-HT2A receptors; 5HT2A pKi): 0.158 nM
- Log Y (5-HT2A receptors): 5.87

Structure (SMILES): CN1CCN(C2Cn3cccc3Sc3ccc(F)cc32)CC1 (racemic) [ST1456, (±)-7-fluoro-9-(4-methylpiperazin-1-yl)-9,10-dihydropyrrolo[2,1-b][1,3]benzothiazepine]
- Log Y (5-HT2A receptors): 5.39
- Ki (DA-3 receptors): 12.2 nM

Structure (SMILES): CN1CCN(C2Cc3ccccc3Sc3ccc(Cl)cc32)CC1 (stereo not drawn) [RS-Octoclothepin, 8-chloro-10-(4-methylpiperazino)-10,11-dihydrodibenzo[b,f]thiepin]
- Log Y (5-HT2A receptors): 8.02
